# Test results published in patent US11141411B2, “Methods of treating neurological, metabolic, and other disorders using enantiopure deuterium-enriched pioglitazone” (Poxel SA, priority 2014, dated 2021).
# Test: Pharmacokinetics in male C57BL/6 mice, oral gavage once a day for 5 days
# Details: analyte d-R-pio in plasma, day 5; 15 mg/kg oral gavage daily
structure (smiles),measurement,value
CCc1ccc(CCOc2ccc(C[C@H]3SC(=O)NC3=O)cc2)nc1,tmax d-R,1 h
